Data: US20250288584A1, “COMBINATIONS COMPRISING POSITIVE ALLOSTERIC MODULATORS OR ORTHOSTERIC AGONISTS OF METABOTROPIC GLUTAMATERGIC RECEPTOR SUBTYPE 2 AND THEIR USE” (JANSSEN PHARMACEUTICA NV, priority 2014, published 2025)

Chains of the proteins cited; added tags and fusions are not shown. Residues count along the entry.
UniProt Q14416, 19-872: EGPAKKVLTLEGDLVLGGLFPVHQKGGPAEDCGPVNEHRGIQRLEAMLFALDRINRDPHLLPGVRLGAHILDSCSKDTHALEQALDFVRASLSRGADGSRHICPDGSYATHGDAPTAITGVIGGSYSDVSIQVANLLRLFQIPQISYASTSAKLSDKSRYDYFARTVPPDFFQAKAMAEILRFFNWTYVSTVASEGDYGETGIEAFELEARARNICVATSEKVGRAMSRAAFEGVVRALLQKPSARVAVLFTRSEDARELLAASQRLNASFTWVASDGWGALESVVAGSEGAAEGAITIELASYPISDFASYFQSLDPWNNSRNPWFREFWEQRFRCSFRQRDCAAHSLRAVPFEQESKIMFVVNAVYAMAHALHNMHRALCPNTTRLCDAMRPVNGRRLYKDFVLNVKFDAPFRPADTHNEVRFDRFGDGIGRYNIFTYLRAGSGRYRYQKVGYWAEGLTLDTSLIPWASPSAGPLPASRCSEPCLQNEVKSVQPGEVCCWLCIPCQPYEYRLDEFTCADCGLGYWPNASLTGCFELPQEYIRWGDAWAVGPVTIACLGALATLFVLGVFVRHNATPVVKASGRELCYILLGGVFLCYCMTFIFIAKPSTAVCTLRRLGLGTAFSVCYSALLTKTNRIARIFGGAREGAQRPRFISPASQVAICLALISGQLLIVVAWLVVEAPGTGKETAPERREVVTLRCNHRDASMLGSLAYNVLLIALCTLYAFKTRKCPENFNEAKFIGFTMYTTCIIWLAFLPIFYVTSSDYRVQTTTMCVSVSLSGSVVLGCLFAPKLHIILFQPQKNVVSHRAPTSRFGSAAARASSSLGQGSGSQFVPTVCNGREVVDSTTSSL

Target: T1, human mGlu2 receptor (Homo sapiens, UniProt Q14416)
T1 construct: expressed in transfected cells; host or cells: CHO cells
Experiment: [35S]GTPγS binding assay, mGluR2 PAM
Assay type: biochemical
Conditions: for Emax: read-out: GTPγS-hmGluR2 PAM Emax, maximal % effect relative to control glutamate response; for Emax / GTPγS-hmGluR2 PAM Emax: EC20 glutamate; for GTPγS-hmGluR2 PAM Emax: maximal % effect relative to control glutamate response
Description: The [^35S]GTPγS binding assay is a functional membrane-based assay used to study G-protein coupled receptor (GPCR) function whereby incorporation of a non-hydrolysable form of GTP, [^35S]GTPγS (guanosine 5′-triphosphate, labelled with […] ^35S), is measured.
Cells were then collected by scraping in PBS and cell suspension was centrifuged (10 min at 4000 RPM in benchtop centrifuge). Supernatant was discarded and pellet gently resuspended in 50 mM Tris-HCl, pH 7.4 by mixing with a vortex and pipetting up and down. The suspension was centrifuged at 16,000 RPM (Sorvall RC-5C plus rotor SS-34) for 10 minutes and the supernatant discarded. The pellet was homogenized in 5 mM Tris-HCl, pH 7.4 using an ultra-turrax homogenizer and centrifuged again (18,000 RPM, 20 min, 4° C.). The final pellet was resuspended in 50 mM Tris-HCl, pH 7.4 and stored at-80° C. in appropriate aliquots before use. Protein concentration was determined by the Bradford method (Bio-Rad, USA) with bovine serum albumin as standard.
Measurement of mGluR2 positive allosteric modulatory activity of test compounds was performed as follows. Test compounds and glutamate were diluted in assay buffer containing 10 mM HEPES acid, 10 mM HEPES salt, pH 7.4, 100 mM NaCl, 3 mM MgCl2 and 10 μM GDP. Human mGlu2 receptor-containing membranes were thawed on ice and diluted in assay buffer supplemented with 14 μg/ml saponin. Membranes were pre-incubated with compound alone or together with a predefined (˜EC20) concentration of glutamate (PAM assay) for 30 min at 30° C. After addition of [^35S] GTPγS (f.c. 0.1 nM), assay mixtures were shaken briefly and further incubated to allow [^35S] GTPγS incorporation on activation (30 minutes, 30° C.). Final assay mixtures contained 7 μg of membrane protein in 10 mM HEPES acid, 10 mM HEPES salt, pH 7.4, 100 mM NaCl, 3 mM MgCl2, 10 µM GDP and 2 μg/ml saponin. Total reaction volume was 200 μl. Reactions were terminated by rapid filtration through Unifilter-96 GF/B plates (Perkin Elmer, Massachusetts, USA) using a 96-well filtermate universal harvester. Filters were washed 6 times with ice-cold 10 mM NaH2PO4/10 mM Na2HPO4, pH 7.4. Filters were then air-dried, and 40 μl of liquid scintillation cocktail (Microscint-O) was added to each well. Membrane-bound radioactivity was counted in a Microplate Scintillation and Luminescence Counter from Perkin Elmer.
The concentration-response curves of representative compounds of the present invention-obtained in the presence of EC20 of mGluR2 agonist glutamate to determine positive allosteric modulation (PAM)—were generated using the Lexis software interface (developed at J&J). Data were calculated as % of the control glutamate response, defined as the maximal response that is generated upon addition of glutamate alone. Sigmoid concentration-response curves plotting these percentages versus the log concentration of the test compound were analyzed using non-linear regression analysis. The concentration producing half-maximal effect is then calculated as EC50. The pEC50 values below were calculated as the −log EC50, when the EC50 is expressed in M. Emax is defined as relative maximal effect (i.e. maximal % effect relative to the control glutamate response).

`CCc1nnc2c(C(F)(F)F)c(C(C)Oc3ccc(F)cc3F)ccn12` (stereo not drawn) [Co. No. 24-b, 7-[1-(2,4-Difluorophenoxy)ethyl]-3-ethyl-8-(trifluoromethyl)[1,2,4]triazolo[4,3-a]pyridine] showed an Emax of 193%.
In the case of `CCc1nnc2c(C(F)(F)F)c(C(C)Oc3ccc(F)cc3F)ccn12` (single isomer, unassigned) [Co. No. 26-b, 7-[(1*R)-1-(2,4-Difluorophenoxy)ethyl]-3-ethyl-8-(trifluoromethyl)[1,2,4]triazolo-[4,3-a]pyridine], the EC50 (in presence of EC20 glutamate, read-out: GTPγS-hmGluR2 PAM pEC50 (converted)) is reported as 166 nM and the Emax is reported as 214%.
`CCc1nnc2c(C(F)(F)F)c(C(C)Oc3c(F)cc(F)cc3F)ccn12` (single isomer, unassigned) [Co. No. 29-b, 3-Ethyl-8-(trifluoromethyl)-7-[(1*S)-1-(2,4,6-trifluorophenoxy)ethyl]-[1,2,4]triazolo-[4,3-a]pyridine] was tested, and the “GTPγS-hmGluR2 PAM Emax” value (listed as 29-b) was 77%.
With `CCc1nnc2c(C(F)(F)F)c(C(C)Oc3c(F)cc(F)cc3F)ccn12` (single isomer, unassigned) [Co. No. 28-b, 3-Ethyl-8-(trifluoromethyl)-7-[(1*R)-1-(2,4,6-trifluorophenoxy)ethyl]-[1,2,4]triazolo-[4,3-a]pyridine] the “GTPγS-hmGluR2 PAM Emax” value (listed as 28-b) was 234%.
`CCc1nnc2c(C(F)(F)F)c(C(C)Oc3ccc(F)cc3F)ccn12` (single isomer, unassigned) [Co. No. 27-b, 7-[(1*S)-1-(2,4-Difluorophenoxy)ethyl]-3-ethyl-8-(trifluoromethyl)[1,2,4]triazolo-[4,3-a]pyridine] was tested, and the “GTPγS-hmGluR2 PAM Emax” value was 51%.
